# Source: patent publication US7786137B2, “Bicyclic derivatives as modulators of ion channels” (Vertex Pharmaceuticals Incorporated, priority 2005, dated 2010)
# Chains of the proteins cited; added tags and fusions are not shown.
# UniProt Q9NY46, whole entry: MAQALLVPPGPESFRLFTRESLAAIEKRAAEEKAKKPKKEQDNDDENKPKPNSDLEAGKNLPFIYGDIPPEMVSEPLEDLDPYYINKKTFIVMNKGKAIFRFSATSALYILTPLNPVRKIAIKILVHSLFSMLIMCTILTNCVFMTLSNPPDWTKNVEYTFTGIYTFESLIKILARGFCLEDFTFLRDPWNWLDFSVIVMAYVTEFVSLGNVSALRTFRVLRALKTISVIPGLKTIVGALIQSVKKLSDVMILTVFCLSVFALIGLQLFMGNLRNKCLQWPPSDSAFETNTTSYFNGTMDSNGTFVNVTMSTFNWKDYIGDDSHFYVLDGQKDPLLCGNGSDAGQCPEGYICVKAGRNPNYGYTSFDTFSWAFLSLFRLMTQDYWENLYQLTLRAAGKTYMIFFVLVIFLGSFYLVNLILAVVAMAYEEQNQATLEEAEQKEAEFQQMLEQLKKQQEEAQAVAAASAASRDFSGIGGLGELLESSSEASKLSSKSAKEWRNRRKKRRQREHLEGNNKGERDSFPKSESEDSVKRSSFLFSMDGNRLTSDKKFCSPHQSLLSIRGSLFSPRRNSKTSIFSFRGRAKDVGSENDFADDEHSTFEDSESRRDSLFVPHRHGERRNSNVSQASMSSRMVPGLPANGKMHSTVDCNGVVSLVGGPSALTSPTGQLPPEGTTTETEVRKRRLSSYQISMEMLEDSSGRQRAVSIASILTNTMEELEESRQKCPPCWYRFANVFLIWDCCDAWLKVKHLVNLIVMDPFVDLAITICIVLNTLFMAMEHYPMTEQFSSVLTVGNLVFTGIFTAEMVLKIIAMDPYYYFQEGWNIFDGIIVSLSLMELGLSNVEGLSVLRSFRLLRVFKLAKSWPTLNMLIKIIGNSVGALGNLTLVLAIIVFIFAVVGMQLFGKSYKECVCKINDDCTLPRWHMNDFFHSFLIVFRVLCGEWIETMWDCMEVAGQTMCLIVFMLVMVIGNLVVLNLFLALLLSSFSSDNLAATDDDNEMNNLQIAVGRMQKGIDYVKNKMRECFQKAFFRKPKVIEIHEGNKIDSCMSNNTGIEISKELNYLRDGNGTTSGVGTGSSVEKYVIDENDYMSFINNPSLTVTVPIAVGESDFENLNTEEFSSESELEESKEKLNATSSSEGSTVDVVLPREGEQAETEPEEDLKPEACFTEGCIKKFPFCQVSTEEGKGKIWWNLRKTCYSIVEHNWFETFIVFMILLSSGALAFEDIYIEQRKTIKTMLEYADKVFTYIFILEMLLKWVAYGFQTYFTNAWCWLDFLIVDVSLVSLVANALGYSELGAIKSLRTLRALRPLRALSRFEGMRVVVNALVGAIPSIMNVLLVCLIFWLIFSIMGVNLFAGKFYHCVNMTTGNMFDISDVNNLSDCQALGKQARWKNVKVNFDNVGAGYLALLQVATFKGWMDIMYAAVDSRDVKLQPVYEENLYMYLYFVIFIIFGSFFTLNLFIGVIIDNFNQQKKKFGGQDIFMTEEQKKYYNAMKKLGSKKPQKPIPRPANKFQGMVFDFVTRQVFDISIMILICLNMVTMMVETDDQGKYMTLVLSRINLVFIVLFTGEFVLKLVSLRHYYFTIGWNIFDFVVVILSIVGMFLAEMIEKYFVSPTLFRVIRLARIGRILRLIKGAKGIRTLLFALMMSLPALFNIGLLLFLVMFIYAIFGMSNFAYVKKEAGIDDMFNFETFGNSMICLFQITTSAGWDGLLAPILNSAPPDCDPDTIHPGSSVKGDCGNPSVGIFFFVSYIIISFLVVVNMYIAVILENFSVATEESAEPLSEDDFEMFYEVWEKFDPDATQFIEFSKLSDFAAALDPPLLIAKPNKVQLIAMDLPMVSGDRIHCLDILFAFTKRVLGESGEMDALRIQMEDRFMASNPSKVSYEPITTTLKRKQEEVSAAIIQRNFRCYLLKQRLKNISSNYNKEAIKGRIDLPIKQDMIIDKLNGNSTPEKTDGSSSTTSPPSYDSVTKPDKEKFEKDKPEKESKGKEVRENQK
# Molecular target: NaV1.3 (Homo sapiens, UniProt Q9NY46)
# Assay: VIPR optical membrane potential assay, NaV1.3 inhibition
# Details: activity against NaV 1.3 channel
structure (smiles),measurement,value
Cc1ccc(OC(=O)N2CCc3cc(S(=O)(=O)Nc4nccs4)ccc32)cc1,IC50,> 5 µM
